Source: paper PMC10763615, “Identification and engineering of potent cyclic peptides with selective or promiscuous binding through biochemical profiling and bioinformatic data analysis” (RSC Chemical Biology, 2023)

The chains behind the UniProt entries cited, without tags or fusion partners. Where a name states a change or a piece, a line headed by the entry shows the natural chain unless it says otherwise. Residues count along the entry.
UniProt P11362, 22-376 limits assumed: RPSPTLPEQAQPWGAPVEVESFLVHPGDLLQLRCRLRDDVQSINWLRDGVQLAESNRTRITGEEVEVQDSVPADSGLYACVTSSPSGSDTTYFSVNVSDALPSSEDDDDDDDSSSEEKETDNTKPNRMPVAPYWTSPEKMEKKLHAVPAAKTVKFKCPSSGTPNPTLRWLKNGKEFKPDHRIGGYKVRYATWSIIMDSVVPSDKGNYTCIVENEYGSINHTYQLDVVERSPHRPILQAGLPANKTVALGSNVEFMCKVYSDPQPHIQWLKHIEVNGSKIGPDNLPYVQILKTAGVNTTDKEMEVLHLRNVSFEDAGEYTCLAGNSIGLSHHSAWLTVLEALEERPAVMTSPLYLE

Legend:
[1] = target: FGFR1c/KLB (Fc-fused human FGF-R1alpha(IIIc) with beta-klotho) (Homo sapiens, UniProt P11362); test: AlphaScreen FGF21 competitive binding assay
FGF-R3C ECD [2] = target: T1, FGF-R3C ECD (Homo sapiens, UniProt P22607); test: biochemical
T1 sequence (P22607 23-375 limits assumed): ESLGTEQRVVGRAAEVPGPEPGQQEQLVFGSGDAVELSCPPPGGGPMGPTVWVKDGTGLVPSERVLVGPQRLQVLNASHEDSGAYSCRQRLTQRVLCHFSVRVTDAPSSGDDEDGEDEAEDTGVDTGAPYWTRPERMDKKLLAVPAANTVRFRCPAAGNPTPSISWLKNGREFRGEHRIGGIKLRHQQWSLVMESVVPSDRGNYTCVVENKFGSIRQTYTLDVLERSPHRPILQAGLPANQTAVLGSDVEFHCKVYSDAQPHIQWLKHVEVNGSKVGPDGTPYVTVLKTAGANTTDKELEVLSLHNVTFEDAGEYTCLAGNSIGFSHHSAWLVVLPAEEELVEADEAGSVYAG
Procedure: (§1) KD affinity binding measurements were obtained by biolayer interferometry (BLI) instruments (Fortebio Octet HTX, or Sartorius Octet RH16 using either 8 or 16 channel mode.
(§2) For single concentration binding experiments, 50 μM peptide stocks in folding buffer were diluted 1:50 in mRNA display selection buffer (PBS pH7.4 supplemented with 0.05% Tween-20 and 0.01% BSA) in either a 96 well black plate, or a 384 well tilted bottom microplate (ForteBio). Biotinylated FGF-R protein was loaded onto Streptavidin-functionalised biosensors (ForteBio) and immersed into ~1 μM peptide to obtain association kinetics curves. Dissociation kinetics curves were obtained by subsequent immersion of ligand-associated loaded sensors into a 1:50 dilution of folding buffer in mRNA display selection buffer. Fitted KD data was adjusted for concentration as determined by UPLC-CAD.
(§3) For accurate multi-concentration KD determination, dilution series of each peptide were made, and association and dissociation kinetics curves were obtained as above for each concentration to fit a multi-point KD binding model. Data collection and analysis was performed using the Octet Instrument Control […]
(§4) concentration assay kinetics curves shown in supplementary Figure S 19-24.

FGF-R1C ECD [3] = target: T2, FGF-R1C ECD (Homo sapiens, UniProt P11362); test: biochemical
Procedure: as §1, §2, §3, §4

[4] = target: T3, FGFR3c/BKL (Fc-fused human FGF-R3alpha(IIIc) with beta-klotho) (Homo sapiens, UniProt P22607); test: AlphaScreen FGF21 competitive binding assay
T3 sequence (P22607 23-375 limits assumed): T1 sequence (P22607 23-375 limits assumed)

FGF-R3C ECD [5] = target: T1, FGF-R3C ECD; test: biochemical; assay type: binding; set-up: DNA constructs for the extracellular domain (ECD) of human FGF-; HPC4 (C); made in house; host or cells: HEK 293-6E
Procedure: as §1, §2, §3, §4

FGF-R1C ECD [6] = target: T2, FGF-R1C ECD; test: biochemical; assay type: binding; set-up: DNA constructs for the extracellular domain (ECD) of human FGF-; HPC4 (C); made in house; host or cells: HEK 293-6E
Procedure: as §1, §2, §3, §4

Question: With `CSCC[C@@H]1NC(=O)[C@H](CC(N)=O)NC(=O)[C@H](CO)NC(=O)[C@@H](NC(=O)[C@@H](N)CCSC)CSSC[C@@H](C(=O)NCC(=O)N[C@@H](CO)C(=O)NCC(=O)N[C@@H](CO)C(=O)N[C@@H](CC(=O)O)C(=O)N[C@@H](Cc2ccc(O)cc2)C(=O)N[C@@H](CCCCN)C(=O)N[C@@H](CC(=O)O)C(=O)N[C@@H](CC(=O)O)C(=O)N[C@@H](CC(=O)O)C(=O)N[C@@H](CC(=O)O)C(=O)N[C@@H](CCCCN)C(N)=O)NC(=O)[C@H](C)NC(=O)[C@H](Cc2c[nH]c3ccccc23)NC(=O)[C@H](Cc2c[nH]c3ccccc23)NC(=O)[C@H](CCCNC(=N)N)NC(=O)[C@H](CC(N)=O)NC(=O)[C@H](C)NC(=O)[C@H](CC(C)C)NC(=O)[C@H](CCCCN)NC(=O)[C@H](Cc2c[nH]c3ccccc23)NC1=O` [1C.3] as the compound, how does the IC50 [1] read?
Answer: The IC50 was 89 nM.

Question: What about the Kd (FGF-R3C ECD [2]) of the same compound?
Answer: Its Kd is greater than 1000 nM.

Question: And the Kd (FGF-R1C ECD [3])?
Answer: Its Kd is 58 nM.

Question: And the IC50 [4]?
Answer: The IC50 was greater than 1000 nM.

Question: And the Kd (FGF-R3C ECD [5])?
Answer: The Kd was 30 nM.

Question: What about the Kd (FGF-R1C ECD [6]) of the same compound?
Answer: Its Kd is 112 nM.

Read-outs that look alike come from different tables or passages of the source.
